# Apparent affinities of Ab-14 variants for a coronavirus HR2 peptide

Values reported by Engelhart et al. 2022, doi:10.1038/s41597-022-01779-4 (FLAb copy).

Antigen: PDVDLGDISGINAS, a 14-residue peptide of the SARS-CoV-2 spike HR2 region.

The variants keep the light chain, the linker and the frameworks of Ab-14 (scFv order VH, a 15-residue (Gly4Ser)3 linker, VL).
VH: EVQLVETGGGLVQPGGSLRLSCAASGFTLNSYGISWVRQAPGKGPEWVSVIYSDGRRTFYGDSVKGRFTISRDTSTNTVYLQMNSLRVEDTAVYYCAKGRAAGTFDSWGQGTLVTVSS
VL: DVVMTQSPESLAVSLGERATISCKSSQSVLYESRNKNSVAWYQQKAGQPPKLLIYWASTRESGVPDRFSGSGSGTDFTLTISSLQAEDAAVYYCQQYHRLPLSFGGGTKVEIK

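In library AAYL49, one, two or three CDR residues were substituted; doubles and triples were drawn at random. The assay is AlphaSeq: two haploid yeast populations carry antibody and antigen on their surface. After mating in shaken culture at 30 °C for 16 h, diploids were selected and their barcode pairs sequenced. The ratio of observed to expected reads was calibrated, replicate by replicate, on BCL2-family standards whose Kd was known from biolayer interferometry. There are three technical replicates.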

Changes read parent residue, position, new residue, counted from the first residue of the VH shown.
The read-out is the apparent dissociation constant on a log10 scale (nM): the lower, the stronger.
The mean shown is taken over the replicates in which the pair was detected.
A pair that was not seen in any replicate is written "nd"; this usually means weak binding, but a binder can also be missed.

changes,mean log10 Kd (nM),replicates with signal,signal with controls
G33D+R56A+G103K,3.39,1 of 3,1 of 9
G26Y+V64N+R100I,3.16,1 of 3,2 of 9
S53P+R57I+T58E,4.14,1 of 3,3 of 9
I34W+Y52L,nd,0 of 3,1 of 9
N30F+G33D+R57N,3.34,1 of 3,2 of 9
G33D+V50A+T104H,3.69,2 of 3,1 of 9
F27S+T28F+I34E,nd,0 of 3,0 of 9
I34G+R57V+D62N,nd,0 of 3,0 of 9
R57A+G99A+D106C,2.80,1 of 3,0 of 9
G61F+D62F+G99V,nd,0 of 3,0 of 9
F27P+G33D+R56K,3.26,3 of 3,5 of 9
I51F+A102T+S107V,4.04,1 of 3,0 of 9
K65M+S107C,2.12,3 of 3,0 of 9
I51M+T58A+A102N,nd,0 of 3,0 of 9
G26A+F27A+G55H,nd,0 of 3,0 of 9
Y32V+S35L+G103Q,4.51,3 of 3,3 of 9
T58D+K65I+D106I,nd,0 of 3,3 of 9
T104S+F105Y,1.46,3 of 3,5 of 9
G33I+G99L,nd,0 of 3,2 of 9
S35M+V50K+R56M,nd,0 of 3,0 of 9
R57I+V64N+G99Q,nd,0 of 3,0 of 9
G55S+T58V+R100Q,nd,0 of 3,0 of 9
R57T+A102I+G103M,2.53,1 of 3,0 of 9
G26F+S35L,nd,0 of 3,0 of 9
R56Q+T58N+A102K,1.84,3 of 3,2 of 9
Y60L+G99N+A101P,nd,0 of 3,0 of 9
R56G+F59E,3.09,3 of 3,3 of 9
Y52Q+T58L+S63E,nd,0 of 3,0 of 9
G26C+F59I+Y60T,nd,0 of 3,0 of 9
G33E+R56Q+R57I,4.63,2 of 3,4 of 9
G33S+G55R+D62H,nd,0 of 3,1 of 9
G26M+G33C+T58L,nd,0 of 3,4 of 9
V50P+K65R+R100C,5.28,1 of 3,4 of 9
T28G+G103H+T104K,2.80,3 of 3,2 of 9
I34Y+G61W+R100M,nd,0 of 3,0 of 9
G33I+T58Q+V64S,4.90,1 of 3,0 of 9
T58V+A101C+S107H,nd,0 of 3,0 of 9
T28L+Y52N+R57I,4.10,2 of 3,1 of 9
L29Y+S53K+F59Y,4.94,2 of 3,4 of 9
S35A+Y52H+R56A,nd,0 of 3,2 of 9
G26Q+S53N+F105Y,nd,0 of 3,0 of 9
I51L+V64W+F105L,nd,0 of 3,0 of 9
Y32P+Y60H+G61Q,nd,0 of 3,0 of 9
F59W+D62G+S63E,3.83,2 of 3,1 of 9
N30M+Y32L+R56I,2.76,3 of 3,1 of 9
S63M+S107T,0.66,3 of 3,1 of 9
T28N+S35K+V64A,1.97,1 of 3,0 of 9
G103T+F105Q,1.90,3 of 3,0 of 9
N30Q+S35W+G103F,4.93,3 of 3,8 of 9
L29W+N30L+G61F,4.63,2 of 3,6 of 9
F27R+N30F+S107D,3.08,3 of 3,0 of 9
S35H+S63N+G99D,0.87,3 of 3,0 of 9
L29V+G61M+K65P,4.10,1 of 3,2 of 9
N30Y+S63T+R100F,4.36,3 of 3,2 of 9
S31Y+Y32L+S63G,nd,0 of 3,0 of 9
G55V+R56S+F59N,4.96,3 of 3,1 of 9
S35L+R56E+A102C,nd,0 of 3,2 of 9
G26Q+S53L+R100T,4.07,3 of 3,5 of 9
I34A+S63Q+R100M,nd,0 of 3,2 of 9
I34E+D62N+A101E,nd,0 of 3,1 of 9
F27E+I51S+R56S,nd,0 of 3,0 of 9
Y32I+D62T+R100P,5.97,1 of 3,5 of 9
I34R+Y60D+T104V,nd,0 of 3,2 of 9
R56C+Y60R+D62P,nd,0 of 3,0 of 9
R57M+S63G+V64A,3.98,1 of 3,1 of 9
F27D+T28H+G99N,2.55,3 of 3,5 of 9
N30M+S31D+S107A,0.78,3 of 3,4 of 9
L29R+D54W+R57P,nd,0 of 3,1 of 9
R57S+K65D+S107T,nd,0 of 3,1 of 9
T58K+F105I,4.72,3 of 3,0 of 9
F59Q+G61Q,1.16,3 of 3,3 of 9
I51R+D54Q+K65G,nd,0 of 3,1 of 9
F27S+D106L,2.18,3 of 3,1 of 9
I51G+Y52T+G103H,nd,0 of 3,1 of 9
T28R+L29C+G99N,nd,0 of 3,1 of 9
S53F+R56W+T58S,3.86,1 of 3,0 of 9

Again, the first 11 entries without any signal:

changes,mean log10 Kd (nM),replicates with signal,signal with controls
I34W+Y52L,nd,0 of 3,1 of 9
F27S+T28F+I34E,nd,0 of 3,0 of 9
I34G+R57V+D62N,nd,0 of 3,0 of 9
G61F+D62F+G99V,nd,0 of 3,0 of 9
I51M+T58A+A102N,nd,0 of 3,0 of 9
G26A+F27A+G55H,nd,0 of 3,0 of 9
T58D+K65I+D106I,nd,0 of 3,3 of 9
G33I+G99L,nd,0 of 3,2 of 9
S35M+V50K+R56M,nd,0 of 3,0 of 9
R57I+V64N+G99Q,nd,0 of 3,0 of 9
G55S+T58V+R100Q,nd,0 of 3,0 of 9

In this assay the parent's reference entry averaged 0.65; its copy inside this library read 4.11 (one replicate of three).
As a blank, each scFv also met three strains without target: over library AAYL49, 15% of these pairings were detected, typically at 4.06 and seldom below 2.83. The control count says in how many pairings with the empty strains this scFv gave a signal.